Test results taken from the OPERA property sets (Mansouri et al. 2018).

Settings: experimental values, compiled

| Structure (SMILES) | logP |
| --- | --- |
| CCCCCCC(CO[N+](=O)[O-])O[N+](=O)[O-] (configuration not stated) | 4.63 |
| O=[N+]([O-])OCCCCCCCCO[N+](=O)[O-] | 4.4 |
